Assay results reported in PubChem BioAssay (Tox21).
Several values for one entry are separate records, joined by “and”; a condition that tells them apart may be missing. Identical values can stand only once. This is a selection; strong and weak results do not stand in their true shares. Results filed as inconclusive are left out. Activity calls are given as the source filed them. The call rests on the fitted dose curve.

assay: qHTS assay to identify small molecule agonists of H2AX - cell viability counter screen (AID 1224847); conditions: CHO-K1 viability, CellTiter-Glo luminescence, 3 h; at 70.9 µM (top of the series); further: top concentration of the series differs between compounds; nearly all actives have a fitted effect of over 30% in size
Excerpt: National Center for Advancing Translational Sciences [NCATS]
NIH Chemical Genomics Center [NCGC]
U.S. Environmental Protection Agency [EPA]
National Institutes of Environmental Health Sciences [NIEHS]
National Toxicology Program [NTP]
U.S. Food and Drug Administration [FDA]
HTRF phospho-H2AX (Ser139) assay (Cisbio Bioassays, US) enables the quantitative detection of the histone variant H2AX when phosphorylated on serine 139. When double-stranded DNA breaks, either by ionizing radiation or endogenous physiological processes, H2AX becomes phosphorylated at Ser139. This phospho-Ser139 serves as a sensitive biomarker for the detection of such breaks, localizing the site of DNA repair. So, HTRF phospho-H2AX Ser139 is a pertinent assay to study genome stability, the cell cycle, DNA repair, and it serves as a biomarker for cancer, and to understand aging. Wild type CHO-K1 cells were used to identify the inducers of Phospho-H2AX Ser 139 from the Tox21 compound collections. Also cytotoxicity of the Tox21 10K compound library against the CHO-K1 cell line was tested by measuring the cell viability using CellTiter-Glo assay (Promega, Madison, WI).
Tox21 Assay Protocol Summary:
The CHO-K1 cells suspended in culture medium containing 10% FBS were dispensed at 1000 cells/ 3 ul/well in 1536-well white wall/solid bottom plates (Greiner Bio-One North America, NC) using a Multidrop Combi (Thermo Fisher Scientific Inc., Waltham, MA). After the assay plates were incubated at 37C overnight, 23 nl of compounds at 15 concentrations (from 5-48 columns) or positive control (from 1 to 4 columns) were transferred to the assay plates using a Pintool station (Wako, San Diego, CA) into each well resulting in a final DMSO concentration of 0.76%. After 3hr incubation at 37C, 3 uL/well CellTiter-Glo luminescent cell viability reagent (Promega Corporation, Madison, WI) was added using a Flying Reagent Dispenser (FRD) (Aurora Discovery, CA). After incubation at room temperature for 30 min, the luminescence intensity was read using a ViewLux plate reader (PerkinElmer, Waltham, MA).
On the % scale 0 is the no-effect control and ±100 the full control effect.

Structure (SMILES) | activity change, negative = cytotoxicity
OCCSCCO | inactive: 8.7%

same assay, conditions: CHO-K1 viability, CellTiter-Glo luminescence, 3 h; at 154 µM (top of the series)

Structure (SMILES) | activity change, negative = cytotoxicity
OCCSCCO | inactive: -0.193%

same assay, conditions: CHO-K1 viability, CellTiter-Glo luminescence, 3 h; at 154 µM (top of the series) unless noted

Structure (SMILES) | activity change, negative = cytotoxicity
CP(=O)(O)OCCC[Si](O)(O)O | inactive: 0.28%
Cc1ccc([N+](=O)[O-])c([N+](=O)[O-])c1 | inactive: -7.39%
O=[N+]([O-])[O-].[NH4+] | inactive: 0.546% and inactive: 3.42%
CCOP(=O)(CC)Oc1ccc([N+](=O)[O-])cc1 (stereo unspecified) | inactive: -0.231% [at 70.9 µM]
[NH4+].[O-][Cl+3]([O-])([O-])[O-] | inactive: 3.42% and inactive: 0.149%
N=C(N)N[N+](=O)[O-] | inactive: -0.338%
CN(C)CCCl | inactive: 2.57%
CC(C)OP(C)(=O)OC(C)C | inactive: 2.13% and inactive: 4.01%
O=[N+]([O-])c1cccc([N+](=O)[O-])c1 | inactive: 0.597%
COP(C)(=O)OC | inactive: -0.386% and inactive: -0.037%
N#CBr | inactive: 0.761%
CCOP(=O)(CC)OCC | inactive: -5.04%
COc1ccc([N+](=O)[O-])cc1[N+](=O)[O-] | inactive: -0.179%
O=[N+]([O-])OCC(CO[N+](=O)[O-])(CO[N+](=O)[O-])CO[N+](=O)[O-] | inactive: -0.0141%
CCN(CC)CCCl | inactive: 0.657%
CC(C)N(CCO)C(C)C | inactive: 1.06%
Nc1cc([N+](=O)[O-])cc([N+](=O)[O-])c1O | inactive: -11.8%
Cc1ccc([N+](=O)[O-])cc1[N+](=O)[O-] | inactive: -0.236% and inactive: 2.51%
Cc1c([N+](=O)[O-])cccc1[N+](=O)[O-] | inactive: -6.38% and inactive: 0.184%
